Measurements: US20110233146A1, “S[…] CONTROL COMPOSITION, SYSTEMS, AND RELATED METHODS THEREFOR” (Siemens Water Technologies Corp., priority 2009, published 2011)

System: dissolved sulfide
Experiment: Sewerage system field trial (Example 1): dissolved sulfide grab samples at LS481, LS480 and treatment plant influent
Details: 10/14 to 10/17, after 10 gal anthraquinone slug on 10/13 at LS482; with calcium hydroxide slurry 258 GPD; nitrate salt solution 197 GPD

Compound: O=C1c2ccccc2C(=O)c2ccccc21 [Anthraquinone, anthraquinone]
- LS481 S^2− MH In Grab: 0 mg/L
